How the values were obtained:
[1] = Circular dichroism (CD) spectroscopy, characterization of helical structure; type: physicochemical; settings: for α-helical content (% helix) in aqueous conditions: aqueous benign buffer pH 7.0, 5° C.; for inducible helical structure Δ[Θ]222 nm TFE-Aqueous: difference 50% TFE minus aqueous buffer
human erythrocytes = experiment: Hemolytic activity against human erythrocytes; type: cell-based; settings: for hemolytic activity HC50: 1% human erythrocytes, 18 h, 37° C.
Description: Peptide samples (concentrations determined by amino acid analysis) were added to 1% human erythrocytes in phosphate-buffered saline (100 mM NaCl, 80 mM Na2HPO4, 20 mM NaH2PO4, pH 7.4) and the reaction mixtures were incubated at 37° C. for 18 h in microtiter plates. Two-fold serial dilutions of the peptide samples were carried out. This determination was made by withdrawing aliquots from the hemolysis assays and removing unlysed erythrocytes by centrifugation (800×g). Hemoglobin release was determined spectrophotometrically at 570 nm. The control for 100% hemolysis was a sample of erythrocytes treated with water. The control for no release of hemoglobin was a sample of 1% erythrocytes without any peptide added. Since erythrocytes were in an isotonic medium, no detectable release (<1% of that released upon complete hemolysis) of hemoglobin was observed from this control during the assay. The hemolytic activity is generally determined as the peptide concentration that causes 50% hemolysis of erythrocytes after 18 h (HC50). HC50 was determined from a plot of percent lysis versus peptide concentration (microM). If 50% hemolysis could not be reached, the inventors used HC30 values (30% hemolysis).

In the case of “Ac-ALArgArgLLSTLSSAKSSKLSTLLArgALArgArg-amide [D61]”, the “α-helical content (% helix) in aqueous conditions” value (“α-helical content (% helix)” for short) [1] is reported as 10.6%, the “inducible helical structure Δ[Θ]222 nm TFE-Aqueous” value [1] is reported as 835 and the “hemolytic activity HC50” value (human erythrocytes) is reported as 3.4 µM.

With “Ac-ALDbuDbuLLSTLSSAKSSKLSTLLDbuALDbuDbu-amide [D60]” the “α-helical content (% helix)” value [1] was 3.3%, the “inducible helical structure Δ[Θ]222 nm TFE-Aqueous” value [1] was 881 and the “hemolytic activity HC50” value (human erythrocytes) was over 1880 µM. For the same substance, the “hemolytic activity (in words)” value (human erythrocytes; human erythrocytes) was “not hemolytic”.

For “Ac-ALKKLLSTLSSA(Dbu)SS(Dbu)LSTLLKALKK-amide [D57]”, the “α-helical content (% helix)” value [1] was 5.9% and the “inducible helical structure Δ[Θ]222 nm TFE-Aqueous” value [1] was 574.

— patent US20200024315A1, “ANTIMICROBIAL PEPTIDES AND METHODS OF TREATING GRAM-NEGATIVE PATHOGENS” (THE REGENTS OF THE UNIVERSITY OF COLORADO, a body corporate, priority 2017, published 2020)
